The entries are a selection whose mix differs from that of the whole data set. Some structures show a salt or complex split into parts, the way the source records it. The source made the active and inactive calls. No stated cut-off is given here; in the data, active means activity change below about -30%; inactive means the rest.
tested on: cytosolic chaperonin (CCT/TRiC complex); test: High-Throughput Screening for Modulators of Cytosolic Chaperonin Activity; details: purified chaperonin ATPase assay, HTRF ADP detection, 30 min; stronger effect = lower value
From the text: The eukaryotic chaperonin named TRiC (for TCP-1 ring complex), also called CCT (for chaperonin containing TCP1), is an essential and conserved chaperone required for the folding and activation of 10-15% of the proteins encoded by the human genome. […] Despite its central role in cellular folding, little is known about TRiC mechanism and mode of substrate binding. Currently, no specific TRiC inhibitors are available. Given the early promise of other chaperone-directed inhibitors as cancer therapeutics (e.g. HSP90 inhibitors), inhibitors of TRiC activity may also selectively target transformed cells and have potential use as therapeutics for cancer.
To this end, a miniaturized assay was developed to screen against the Molecular Libraries Small Molecule Repository (MLSMR).
NIH Chemical Genomics Center [NCGC]
NIH Molecular Libraries Probe Centers Network [MLPCN]
Assay Submitter (PI): Judith Frydman, Stanford University
1.5 uL/well TRiC enzyme suspended in buffer (30 mM TRIS pH7.4, 100 mM KCl, 5 mM MgCl2, 1 mM DTT) was added with BioRAPTR FRD dispenser at 40 nM or 20 nM (based on the enzymatic activity of used batches) final concentration to a white solid bottom medium binding 1536-well plate (Greiner Bio-One, Monroe, NC), and quickly spanned down. 23 nl/well of compound solutions in DMSO were added with a pintool transfer (Kalypsis, San Diego, CA) at a single 76 uM final concentration. Next, 1.5 µl/well ATP was dispensed with BioraptR at 10 uM final concentration after which the plates were incubated at 37 deg C for 30 min. HTRF(R) Transcreener(R) ADP (Cisbio US, Bedford, MA) detection reagents were prepared accordingly to the protocol and dispensed into the plate (1.5 uL/well each), incubated for 30 min at ambient temperature. Then, the plates were read using Envision reader with excitation at 330nm and emission at 615nm (Eu(3)-Cryptate donor signal) and 665nm (d2 acceptor signal). The ratio of […] was calculated for each well.
On the % scale 0 is the no-effect control and ±100 the full control effect.

Q: How did the activity change turn out when `O=C(NCC1(N2CCCCC2)CCCCC1)c1cccc([N+](=O)[O-])c1` was run?
A: inactive: -1.62%

Q: `CSc1ccc(C(=O)NCC2(N3CCOCC3)CCCCC2)cc1` was tested. Which activity change did it give?
A: inactive: -4.05%

Q: With `O=c1[nH]c2ccccc2n1C1CCN(C(c2ccccc2OC(F)(F)F)c2nnnn2C2CCCC2)CC1` (configuration not stated) as the compound, how does the activity change read?
A: inactive: 1.4%

Q: How did the activity change turn out when `N#CC1(Nc2ccccc2)CCN(CCc2ccccc2)CC1` was run?
A: inactive: -3.52%

Q: How did the activity change turn out when `CCN1CCC(Nc2ccc(Cl)cc2)CC1` was run?
A: inactive: 0.0595%

Q: How did the activity change turn out when `O=C(NCC1(N2CCCCC2)CCCCC1)c1ccc(OC(F)F)cc1` was run?
A: inactive: 1.74%

Q: `CC(C)(C)n1nnnc1C(c1ccccc1OC(F)(F)F)N1CCC(n2c(=O)[nH]c3ccccc32)CC1` (configuration not stated) was tested. Which activity change did it give?
A: inactive: 0.456%

Q: For `COc1ccc(NC2CCN(C(=O)OC(C)(C)C)CC2)cc1`, which activity change is on record?
A: inactive: -1.46%

Q: For `CC(C)c1ccc(C(=O)NCC2(N3CCOCC3)CCCCC2)cc1`, which activity change is on record?
A: inactive: 0.615%

Q: Which activity change does the source give for `CN1CCN(CCOC(=O)C(O)(c2ccccc2)c2ccccc2)CC1` here?
A: inactive: 2.18%

Q: Which activity change does the source give for `CCCCn1nnnc1C(c1cccc2ccccc12)N1CCC(n2c(=O)[nH]c3ccccc32)CC1` (configuration not stated) here?
A: inactive: -1.84%

Q: For `O=C(NCC1(N2CCOCC2)CCCCC1)c1cc(=O)[nH]c2ccccc12`, which activity change is on record?
A: inactive: -3.1%

Q: `COc1cc(C(=O)NCC2(N3CCCCC3)CCCCC2)ccc1OC(F)F` was tested. Which activity change did it give?
A: inactive: -1.79%

Q: Which activity change does the source give for `O=C(NCC1(N2CCCCC2)CCCCC1)c1cccc(C(F)(F)F)c1` here?
A: inactive: -0.303%

Q: For `O=[N+]([O-])c1cc([N+](=O)[O-])c(NCC2CCS(=O)(=O)C2)c([N+](=O)[O-])c1` (configuration not stated), which activity change is on record?
A: inactive: -0.0281%

Q: With `CCCCn1nnnc1C(c1ccnc2ccccc12)N1CCC(n2c(=O)[nH]c3ccccc32)CC1` (configuration not stated) as the compound, how does the activity change read?
A: inactive: -6.62%

Q: For `CCC(c1nnnn1C(C)(C)C)N1CCC(n2c(=O)[nH]c3ccccc32)CC1` (configuration not stated), which activity change is on record?
A: inactive: 0.102%

Q: For `O=C(NCC1(N2CCOCC2)CCCCC1)c1cc(F)c(F)cc1Cl`, which activity change is on record?
A: inactive: -3.38%

Q: For `COc1cc(OC)c(C(=O)NCC2(N(C)C)CCCCC2)cc1OC`, which activity change is on record?
A: inactive: 0.48%

Q: How did the activity change turn out when `CN(C)c1cccc(C(=O)NCC2(N3CCCCC3)CCCCC2)c1` was run?
A: inactive: -4.24%

Q: Which activity change does the source give for `O=[N+]([O-])c1cc([N+](=O)[O-])c(OC2CCCCC2O)c([N+](=O)[O-])c1` (configuration not stated) here?
A: inactive: 0.631%

Q: For `COc1ccc(CN(CCCl)CCCl)cc1Cl`, which activity change is on record?
A: inactive: -0.498%

Q: For `CCCCn1nnnc1C(c1ccccc1OC(F)(F)F)N1CCC(n2c(=O)[nH]c3ccccc32)CC1` (configuration not stated), which activity change is on record?
A: inactive: 1.03%

Q: How did the activity change turn out when `CC(C)c1ccc(NC2CCN(C(=O)OC(C)(C)C)CC2)cc1` was run?
A: inactive: 0.25%

Q: For `CCCOc1ccc(C(=O)NCC2(N(C)C)CCCCC2)cc1OC`, which activity change is on record?
A: inactive: 0.311%

Q: `Cc1ccc(C(=O)NCC2(N(C)C)CCCCC2)o1` was tested. Which activity change did it give?
A: inactive: 1.93%

Q: Which activity change does the source give for `COc1ccc(C(c2nnnn2C2CCCC2)N2CCC(n3c(=O)[nH]c4ccccc43)CC2)cc1` (configuration not stated) here?
A: inactive: -0.29%

Q: With `O=[N+]([O-])c1cc([N+](=O)[O-])c(Nc2ccc(Cl)cc2)c([N+](=O)[O-])c1` as the compound, how does the activity change read?
A: inactive: 0.442%

Q: For `CN1CCC(Nc2cccc(F)c2)CC1`, which activity change is on record?
A: inactive: -0.068%

Q: `O=C(NCC1(N2CCCCC2)CCCCC1)c1cncc(Br)c1` was tested. Which activity change did it give?
A: inactive: -3.33%

Q: `COc1ccc2c(c1O)-c1c(O)c(OC)cc3c1[C@H](C2)[N+](C)(C)CC3.O=[N+]([O-])c1cc([N+](=O)[O-])c([O-])c([N+](=O)[O-])c1[O-]` was tested. Which activity change did it give?
A: inactive: -3.22%

Q: For `O=C(OC1CN2CCC1CC2)c1ccc([N+](=O)[O-])cc1` (configuration not stated), which activity change is on record?
A: inactive: -3.22%

Q: For `Cc1cccc(NC2(C#N)CCN(Cc3ccccc3)CC2)c1`, which activity change is on record?
A: inactive: -0.131%

Q: `CSc1ccccc1C(=O)NCC1(N2CCCCC2)CCCCC1` was tested. Which activity change did it give?
A: inactive: -1.23%

Q: How did the activity change turn out when `CCCCn1nnnc1C(CC)N1CCC(n2c(=O)[nH]c3ccccc32)CC1` (configuration not stated) was run?
A: inactive: -2.51%

Q: With `O=C(NCC1(N2CCCCC2)CCCCC1)c1cccs1` as the compound, how does the activity change read?
A: inactive: 3.68%

Q: `CCCCn1nnnc1C(c1cccs1)N1CCC(n2c(=O)[nH]c3ccccc32)CC1` (configuration not stated) was tested. Which activity change did it give?
A: inactive: -5.23%

Q: `O=C(NCC1(N2CCCCC2)CCCCC1)c1ccc(=O)[nH]c1` was tested. Which activity change did it give?
A: inactive: 1.2%

Q: With `COc1ccc(C(=O)NCC2(N3CCCCC3)CCCCC2)c(OC)c1OC` as the compound, how does the activity change read?
A: inactive: -1.41%

Q: For `CC(C)(C)OC(=O)N1CCC(N(C(=O)c2ccccc2)c2ccc(F)cc2)CC1`, which activity change is on record?
A: inactive: 1.61%

Q: How did the activity change turn out when `CCC(c1nnnn1C1CCCC1)N1CCC(n2c(=O)[nH]c3ccccc32)CC1` (configuration not stated) was run?
A: inactive: 0.104%

Q: Which activity change does the source give for `COc1ccc(C(=O)NCC2(N3CCCCC3)CCCCC2)cc1` here?
A: inactive: -3.72%

Q: With `CCCCn1nnnc1C(c1ccc(OC)cc1)N1CCC(n2c(=O)[nH]c3ccccc32)CC1` (configuration not stated) as the compound, how does the activity change read?
A: inactive: -0.784%

Q: `CCOC(=O)N1CCC(Nc2ccc(OC)cc2)CC1` was tested. Which activity change did it give?
A: inactive: -0.0922%

Q: How did the activity change turn out when `COc1ccc(Cl)cc1C(=O)NCC1(N2CCOCC2)CCCCC1` was run?
A: inactive: -0.332%

Q: How did the activity change turn out when `O=C1C(O)=C([N+](=O)[O-])C(=O)C(O)=C1[N+](=O)[O-]` was run?
A: inactive: -2.55%

Q: How did the activity change turn out when `O=C(NCC1(N2CCCCC2)CCCCC1)c1ccc(Cl)s1` was run?
A: inactive: -1.19%

Q: Which activity change does the source give for `N#CC1(Nc2ccccc2)CCN(Cc2ccccc2)CC1` here?
A: inactive: -1.4%

Q: For `O=c1[nH]c2ccccc2n1C1CCN(C(c2cc3ccccc3o2)c2nnnn2C2CCCCC2)CC1` (configuration not stated), which activity change is on record?
A: inactive: 2.14%

Q: How did the activity change turn out when `O=C(OC1CN2CCC1CC2)C1c2ccccc2Oc2ccccc21` (configuration not stated) was run?
A: inactive: 1.45%

Q: How did the activity change turn out when `O=C(NCC1(N2CCOCC2)CCCCC1)c1cc2ccccc2o1` was run?
A: inactive: -0.719%

Q: `Cc1cc(C)cc(N(C(=O)c2ccccc2)C2CCN(C(=O)OC(C)(C)C)CC2)c1` was tested. Which activity change did it give?
A: inactive: 0.429%

Q: Which activity change does the source give for `O=C(NCC1(N2CCCCC2)CCCCC1)c1ccc(Cl)nc1` here?
A: inactive: 0.0389%

Q: `O=c1[nH]c2ccccc2n1C1CCN(C(c2ccccc2OC(F)(F)F)c2nnnn2C2CCCCC2)CC1` (configuration not stated) was tested. Which activity change did it give?
A: inactive: 1.08%

Q: For `CCOC(=O)N1CCC(Nc2ccc(F)cc2)CC1`, which activity change is on record?
A: inactive: -0.713%

Q: `COc1ccc(NC2CCN(CCc3ccccc3)CC2)c(OC)c1` was tested. Which activity change did it give?
A: inactive: -0.858%

Q: Which activity change does the source give for `CCCCOc1ccc(C(=O)NCC2(N3CCOCC3)CCCCC2)cc1` here?
A: inactive: 1.79%

Source: PubChem BioAssay AID651819 (National Center for Advancing Translational Sciences (NCATS), 2012)
